Measurements published in article PMC4423116, “Tarantula toxins use common surfaces for interacting with Kv and ASIC ion channels” (eLife, 2015).

Molecular target: T1, Kv2.1 channel (Rattus norvegicus, UniProt P15387)
T1 construct: expressed in transfected cells; host or cells: Xenopus laevis oocytes, cRNA injection
T1 sequence (P15387 1-857): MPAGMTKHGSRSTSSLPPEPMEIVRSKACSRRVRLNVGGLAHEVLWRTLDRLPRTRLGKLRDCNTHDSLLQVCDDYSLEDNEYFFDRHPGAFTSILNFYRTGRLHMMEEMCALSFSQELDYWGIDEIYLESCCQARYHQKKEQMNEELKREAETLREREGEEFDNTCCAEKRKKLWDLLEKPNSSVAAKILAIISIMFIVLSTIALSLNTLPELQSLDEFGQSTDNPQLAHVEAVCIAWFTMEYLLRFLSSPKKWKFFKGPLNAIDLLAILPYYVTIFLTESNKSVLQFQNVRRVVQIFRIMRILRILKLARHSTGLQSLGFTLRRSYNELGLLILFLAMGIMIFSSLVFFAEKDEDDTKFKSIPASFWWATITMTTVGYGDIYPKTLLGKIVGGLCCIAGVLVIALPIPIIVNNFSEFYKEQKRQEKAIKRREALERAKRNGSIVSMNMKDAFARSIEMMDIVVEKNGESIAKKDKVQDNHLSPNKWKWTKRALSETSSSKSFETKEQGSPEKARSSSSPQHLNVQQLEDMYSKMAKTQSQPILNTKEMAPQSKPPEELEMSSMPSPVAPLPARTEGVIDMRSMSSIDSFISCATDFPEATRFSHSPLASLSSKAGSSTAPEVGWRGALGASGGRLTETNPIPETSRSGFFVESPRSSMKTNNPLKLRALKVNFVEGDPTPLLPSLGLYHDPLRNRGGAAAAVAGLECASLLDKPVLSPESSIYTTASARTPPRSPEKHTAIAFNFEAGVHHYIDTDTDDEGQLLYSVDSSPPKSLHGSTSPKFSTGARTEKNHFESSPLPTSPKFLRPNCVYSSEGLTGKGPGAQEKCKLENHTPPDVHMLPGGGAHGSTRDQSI
Assay: Inhibition of Kv2.1 channel currents in Xenopus oocytes (two-electrode voltage clamp), apparent affinity
Assay type: cell-based
Conditions: Kv2.1 in oocytes; for ∆∆G (perturbation energy): from apparent Kd of mutant vs GxTx-1E(Nle); for Kd^mut/Kd^wt: ratio of apparent Kd of mutant to GxTx-1E(Nle)

CCCC[C@H](NC(=O)[C@@H]1CCCN1C(=O)[C@H](Cc1ccccc1)NC(=O)[C@H](CC(N)=O)NC(=O)[C@@H]1CSSC[C@@H]2NC(=O)[C@H](C)NC(=O)[C@@H]3CCCN3C(=O)[C@H](CCCCN)NC(=O)CNC(=O)[C@H](CO)NC(=O)CNC(=O)[C@@H]3CSSC[C@H](NC(=O)[C@H](C(C)C)NC(=O)[C@H](Cc4ccc(O)cc4)NC(=O)[C@H](CCCCN)NC(=O)[C@@H]4CCCN4C(=O)[C@H](CSSC[C@H](NC(=O)[C@H](CCC(=O)O)NC(=O)CNC(=O)[C@@H](N)CCC(=O)O)C(=O)NCC(=O)NCC(=O)N[C@@H](Cc4ccccc4)C(=O)N[C@@H](Cc4c[nH]c5ccccc45)C(=O)N[C@@H](Cc4c[nH]c5ccccc45)C(=O)N[C@@H](CCCCN)C(=O)N3)NC2=O)C(=O)N[C@@H](CO)C(=O)N[C@@H](C)C(=O)N[C@@H](CCCCN)C(=O)N[C@@H](Cc2c[nH]c3ccccc23)C(=O)NCC(=O)N[C@@H](CC(C)C)C(=O)N1)C(=O)N1CCC[C@H]1C(=O)O [Toxin P26A]
∆∆G (perturbation energy): 0.76 kcal/mol
Kd^mut/Kd^wt: 3.6

CCCC[C@H](NC(=O)[C@H](C)NC(=O)[C@H](Cc1ccccc1)NC(=O)[C@H](CC(N)=O)NC(=O)[C@@H]1CSSC[C@@H]2NC(=O)[C@H](C)NC(=O)[C@@H]3CCCN3C(=O)[C@H](CCCCN)NC(=O)CNC(=O)[C@H](CO)NC(=O)CNC(=O)[C@@H]3CSSC[C@H](NC(=O)[C@H](C(C)C)NC(=O)[C@H](Cc4ccc(O)cc4)NC(=O)[C@H](CCCCN)NC(=O)[C@@H]4CCCN4C(=O)[C@H](CSSC[C@H](NC(=O)[C@H](CCC(=O)O)NC(=O)CNC(=O)[C@@H](N)CCC(=O)O)C(=O)NCC(=O)NCC(=O)N[C@@H](Cc4ccccc4)C(=O)N[C@@H](Cc4c[nH]c5ccccc45)C(=O)N[C@@H](Cc4c[nH]c5ccccc45)C(=O)N[C@@H](CCCCN)C(=O)N3)NC2=O)C(=O)N[C@@H](CO)C(=O)N2CCC[C@H]2C(=O)N[C@@H](CCCCN)C(=O)N[C@@H](Cc2c[nH]c3ccccc23)C(=O)NCC(=O)N[C@@H](CC(C)C)C(=O)N1)C(=O)N1CCC[C@H]1C(=O)O [Toxin P34A]
∆∆G (perturbation energy): 0.26 kcal/mol
Kd^mut/Kd^wt: 1.6

CCCC[C@H](NC(=O)[C@@H]1CCCN1C(=O)[C@H](Cc1ccccc1)NC(=O)[C@H](CC(N)=O)NC(=O)[C@@H]1CSSC[C@@H]2NC(=O)[C@H](C)NC(=O)[C@@H]3CCCN3C(=O)[C@H](CCCCN)NC(=O)CNC(=O)[C@H](CO)NC(=O)CNC(=O)[C@@H]3CSSC[C@H](NC(=O)[C@H](C(C)C)NC(=O)[C@H](Cc4ccc(O)cc4)NC(=O)[C@H](CCCCN)NC(=O)[C@@H]4CCCN4C(=O)[C@H](CSSC[C@H](NC(=O)[C@H](CCC(=O)O)NC(=O)CNC(=O)[C@@H](N)CCC(=O)O)C(=O)NCC(=O)NCC(=O)N[C@@H](Cc4ccccc4)C(=O)N[C@@H](Cc4c[nH]c5ccccc45)C(=O)N[C@@H](Cc4c[nH]c5ccccc45)C(=O)N[C@@H](CCCCN)C(=O)N3)NC2=O)C(=O)N[C@@H](CO)C(=O)N2CCC[C@H]2C(=O)N[C@@H](CCCCN)C(=O)N[C@@H](Cc2c[nH]c3ccccc23)C(=O)NCC(=O)N[C@@H](CC(C)C)C(=O)N1)C(=O)N[C@@H](C)C(=O)O [Toxin P36A]
∆∆G (perturbation energy): 0.07 kcal/mol
Kd^mut/Kd^wt: 1.1

CCCC[C@H](NC(=O)[C@@H]1CCCN1C(=O)[C@H](Cc1ccccc1)NC(=O)[C@H](CC(N)=O)NC(=O)[C@@H]1CSSC[C@@H]2NC(=O)[C@H](C)NC(=O)[C@@H]3CCCN3C(=O)[C@H](CCCCN)NC(=O)CNC(=O)[C@H](C)NC(=O)CNC(=O)[C@@H]3CSSC[C@H](NC(=O)[C@H](C(C)C)NC(=O)[C@H](Cc4ccc(O)cc4)NC(=O)[C@H](CCCCN)NC(=O)[C@@H]4CCCN4C(=O)[C@H](CSSC[C@H](NC(=O)[C@H](CCC(=O)O)NC(=O)CNC(=O)[C@@H](N)CCC(=O)O)C(=O)NCC(=O)NCC(=O)N[C@@H](Cc4ccccc4)C(=O)N[C@@H](Cc4c[nH]c5ccccc45)C(=O)N[C@@H](Cc4c[nH]c5ccccc45)C(=O)N[C@@H](CCCCN)C(=O)N3)NC2=O)C(=O)N[C@@H](CO)C(=O)N2CCC[C@H]2C(=O)N[C@@H](CCCCN)C(=O)N[C@@H](Cc2c[nH]c3ccccc23)C(=O)NCC(=O)N[C@@H](CC(C)C)C(=O)N1)C(=O)N1CCC[C@H]1C(=O)O [Toxin S13A]
∆∆G (perturbation energy): 0.53 kcal/mol
Kd^mut/Kd^wt: 2.4

CCCC[C@H](NC(=O)[C@@H]1CCCN1C(=O)[C@H](Cc1ccccc1)NC(=O)[C@H](CC(N)=O)NC(=O)[C@@H]1CSSC[C@@H]2NC(=O)[C@H](C)NC(=O)[C@@H]3CCCN3C(=O)[C@H](CCCCN)NC(=O)CNC(=O)[C@H](CO)NC(=O)CNC(=O)[C@@H]3CSSC[C@H](NC(=O)[C@H](C(C)C)NC(=O)[C@H](Cc4ccc(O)cc4)NC(=O)[C@H](CCCCN)NC(=O)[C@@H]4CCCN4C(=O)[C@H](CSSC[C@H](NC(=O)[C@H](CCC(=O)O)NC(=O)CNC(=O)[C@@H](N)CCC(=O)O)C(=O)NCC(=O)NCC(=O)N[C@@H](Cc4ccccc4)C(=O)N[C@@H](Cc4c[nH]c5ccccc45)C(=O)N[C@@H](Cc4c[nH]c5ccccc45)C(=O)N[C@@H](CCCCN)C(=O)N3)NC2=O)C(=O)N[C@@H](C)C(=O)N2CCC[C@H]2C(=O)N[C@@H](CCCCN)C(=O)N[C@@H](Cc2c[nH]c3ccccc23)C(=O)NCC(=O)N[C@@H](CC(C)C)C(=O)N1)C(=O)N1CCC[C@H]1C(=O)O [Toxin S25A]
∆∆G (perturbation energy): 0.98 kcal/mol
Kd^mut/Kd^wt: 5.2

CCCC[C@H](NC(=O)[C@@H]1CCCN1C(=O)[C@H](Cc1ccccc1)NC(=O)[C@H](CC(N)=O)NC(=O)[C@@H]1CSSC[C@@H]2NC(=O)[C@H](C)NC(=O)[C@@H]3CCCN3C(=O)[C@H](CCCCN)NC(=O)CNC(=O)[C@H](CO)NC(=O)CNC(=O)[C@@H]3CSSC[C@H](NC(=O)[C@H](C)NC(=O)[C@H](Cc4ccc(O)cc4)NC(=O)[C@H](CCCCN)NC(=O)[C@@H]4CCCN4C(=O)[C@H](CSSC[C@H](NC(=O)[C@H](CCC(=O)O)NC(=O)CNC(=O)[C@@H](N)CCC(=O)O)C(=O)NCC(=O)NCC(=O)N[C@@H](Cc4ccccc4)C(=O)N[C@@H](Cc4c[nH]c5ccccc45)C(=O)N[C@@H](Cc4c[nH]c5ccccc45)C(=O)N[C@@H](CCCCN)C(=O)N3)NC2=O)C(=O)N[C@@H](CO)C(=O)N2CCC[C@H]2C(=O)N[C@@H](CCCCN)C(=O)N[C@@H](Cc2c[nH]c3ccccc23)C(=O)NCC(=O)N[C@@H](CC(C)C)C(=O)N1)C(=O)N1CCC[C@H]1C(=O)O [Toxin V23A]
∆∆G (perturbation energy): 0.50 kcal/mol
Kd^mut/Kd^wt: 2.3

CCCC[C@H](NC(=O)[C@@H]1CCCN1C(=O)[C@H](Cc1ccccc1)NC(=O)[C@H](CC(N)=O)NC(=O)[C@@H]1CSSC[C@@H]2NC(=O)[C@H](C)NC(=O)[C@@H]3CCCN3C(=O)[C@H](CCCCN)NC(=O)CNC(=O)[C@H](CO)NC(=O)CNC(=O)[C@@H]3CSSC[C@H](NC(=O)[C@H](C(C)C)NC(=O)[C@H](C)NC(=O)[C@H](CCCCN)NC(=O)[C@@H]4CCCN4C(=O)[C@H](CSSC[C@H](NC(=O)[C@H](CCC(=O)O)NC(=O)CNC(=O)[C@@H](N)CCC(=O)O)C(=O)NCC(=O)NCC(=O)N[C@@H](Cc4ccccc4)C(=O)N[C@@H](Cc4c[nH]c5ccccc45)C(=O)N[C@@H](Cc4c[nH]c5ccccc45)C(=O)N[C@@H](CCCCN)C(=O)N3)NC2=O)C(=O)N[C@@H](CO)C(=O)N2CCC[C@H]2C(=O)N[C@@H](CCCCN)C(=O)N[C@@H](Cc2c[nH]c3ccccc23)C(=O)NCC(=O)N[C@@H](CC(C)C)C(=O)N1)C(=O)N1CCC[C@H]1C(=O)O [Toxin Y22A]
∆∆G (perturbation energy): 3.00 kcal/mol
Kd^mut/Kd^wt: 157.7
